We go through one compound from ChEMBL document CHEMBL1134790, “Design, synthesis, and evaluation of novel A2A adenosine receptor agonists” (J Med Chem, 2001).

Sequences of proteins named here, by UniProt entry; tags and fusion partners are left off.
UniProt P25099, whole entry: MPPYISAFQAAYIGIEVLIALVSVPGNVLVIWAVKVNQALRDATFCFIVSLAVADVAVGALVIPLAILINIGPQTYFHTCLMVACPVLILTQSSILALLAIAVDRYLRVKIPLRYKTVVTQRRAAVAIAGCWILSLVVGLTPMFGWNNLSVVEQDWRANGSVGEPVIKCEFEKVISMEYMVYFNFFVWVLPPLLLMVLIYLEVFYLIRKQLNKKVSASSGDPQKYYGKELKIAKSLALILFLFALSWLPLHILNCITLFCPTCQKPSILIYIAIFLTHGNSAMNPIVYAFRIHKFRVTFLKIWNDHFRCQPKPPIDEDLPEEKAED

The pKi is the negative decadic logarithm of the Ki, by convention in mol/L. Read a high pKi as a small Ki.

Each structure is given as a SMILES string. pKi: −log10 of the molar value.

The assay has as its target Adenosine receptor A1 (Rattus norvegicus, UniProt P25099). The assay can be described thus: biochemical.

In the case of `CCNC(=O)[C@H]1O[C@@H](n2cnc3c(N)nc(NCCc4ccc(CCC(=O)O)cc4)nc32)[C@H](O)[C@@H]1O` [CGS-21680], the pKi is 5.74.
